The source of these data is patent US10272144B2, “Compositions for and methods of treating and preventing targeting tumor associated carbohydrate antigens” (Board of Trustees of the University of Arkansas, priority 2013, dated 2019).

The test system of data set [1] is cancer cells (HCC1954 and MDA-MB-231). As to the kind of experiment: Immunized plasma toxicity on cancer cells (both cell lines). Particulars: 6 subjects. The format is cell-based, human. The text has this:
Medium in control wells contained 10% FBS.

The test system of data set [2] is MDA-MB-231 cells. To be noted: 10% plasma, 24 hours; 6 subjects; P=0.044.
The conditions of data set [3]: acidic pH.
For data set [4], the system named is HCC1954 cells. To be noted: 10% plasma, 24 hours; 6 subjects; P=0.047.

As for “H-Trp-Arg-Tyr-Thr-Ala-Pro-Val-His-Leu-Gly-Asp-Gly-dAla-Lys-CHAla-Val-Ala-Ala-Trp-Thr-Leu-Lys-Ala-Ala-dAla-NH2 [P10s-PADRE]”, the “cytotoxicity of post-immune plasma compared to pre-immune plasma” value in data set [1] is “higher in the post-immune plasma from 5 of the 6 subjects”. Also, the figures for the “post-immune increase in cytotoxicity, average (standard deviation)” value in data set [2] and in data set [4] were 30% (28%) and 26% (24%), respectively. In addition, the aqueous solubility result in data set [3] is on record as “good”. The toxicities result (500 μg dose) was “no toxicities”. Besides, the side effects entry (Example 5 patient, 300 mcg SC) is reported as “Other than local reactions with indurations at the site of injections, the vaccine did not have any side effects”. Also, the “dose-limiting toxicities (DLTs)” value (first four subjects, SC with MONTANIDE ISA 51 VG) was “No dose-limiting toxicities”. Moreover, where the note is “whole study, 300 and 500 μg/injection”, the dose-limiting toxicity result was “No dose-limiting toxicity”. Moreover, the safety and tolerability result (whole study, six subjects) is “safe and tolerable”.
